Tested on: C9-500 BAC mice
Assay: Metformin in drinking water in C9-500 BAC transgenic mice (C9orf72 ALS/FTD model)
Format: in vivo
Conditions: for GA aggregates in the retrosplenial cortex: vs C9 controls

With `CN(C)C(=N)NC(=N)N` [metformin] the “DigiGait parameters improved, of eight that differed between untreated C9 and NT” value (Group A, treated from 2 months for 3 months, 5 mg/ml in drinking water, vs C9 water group) was “six of these parameters improved”, the “GA aggregates in the retrosplenial cortex” value (Group A, treatment begun presymptomatic (8 wks)) was “decreased numbers of GA aggregates” and the “GFAP IHC staining (neuroinflammation marker)” value (Group A, vs untreated C9 animals) was “significantly reduced”. The “open field center time” value (Group A, vs untreated C9 mice) was “increased center time” and the “GA aggregates in the retrosplenial cortex” value (Group B, treatment begun symptomatic (6 mos)) was “decreased numbers of GA aggregates”.
